Measurements reported in patent publication US20130243707A1 (published 2013).

Test: Super-solvent effect (Drug solubilized by combinations of solvent alcohols)
Conditions: PG 4 gr, PEG 400 3 gr, EtOH 1 gr, IPA 1.1 gr

Super-solvent Effect: 36.5%
Compound: CC(C)Cc1ccc(C(C)C(=O)O)cc1 (stereo not shown) [Ibuprofen]
